Experimental data: patent US9522881B2, “Hydroxyindole carboxylic acid based inhibitors for oncogenic Src homology-2 domain containing protein tyrosine phosphatase-2 (SHP2)” (Indiana University Research and Technology Corporation, priority 2013, dated 2016)

Tests used:
SHP2/K364S = SHP2/K364S (Homo sapiens (Human), UniProt Q06124, K364S)
SHP2/R362A = SHP2/R362A (Homo sapiens (Human), UniProt Q06124, R362A)

## Cn1c(-c2cccc(NC(=O)C(=O)Nc3ccc(-c4ccsc4)cc3)c2)c(I)c2cc(C(=O)O)c(O)cc21 [11a-1, 6-hydroxy-3-iodo-1-methyl-2-(3-(2-oxo-2-((4-(thiophen-3-yl)phenyl)amino)acetamido)phenyl)-1H-indole-5-carboxylic acid]
SHP2/K364S
  IC50 for SHP2/K364S, fold higher than that of the wild-type enzyme: 1.3 fold
SHP2/R362A
  IC50 for SHP2/R362A, fold higher than that of the wild-type enzyme: 2.2 fold
